Test results published in patent publication US5801191A, “Taxoids” (Biophysica Foundation, priority 1995, dated 1998).
“Also recorded” adds a separate entry of the source.

How the values were obtained:
[1] = system: panel of human tumor cell lines; experiment: Cytotoxic activity in a panel of human tumor cell lines as compared to paclitaxel
[2] = Water solubility / formulation in aqueous vehicles

## methyl vinyl ether/maleic anhydride:paclitaxel conjugate [BP-172]
[1]
  cytotoxic activity as compared to paclitaxel: cytotoxic activity equal to, or greater than, paclitaxel
[2]
  formulation in aqueous vehicles: readily formulated in saline or 5% dextrose; also recorded: readily formulated in standard aqueous vehicles
  water solubility as compared with paclitaxel: more water soluble than paclitaxel
